A short description of the assay: compounds inducing NF-kB luciferase expression – cell-based, SH-SY5Y, dose response (AID 1241). The settings on record: SH-SY5Y NF-kB promoter luciferase reporter, fold induction. For orientation: A reporter such as luciferase makes a cellular process visible.

For 1 molecule, EC50 results are on record in PubChem BioAssay AID1241 (SRMLSC, 2008).

SMILES strings stand for the structures.

One may read the EC50 as the concentration that produces a half-maximal response. As for `Oc1ccc(/C=C/c2cc(O)cc(O)c2)cc1`, the EC50 is 5.2 µM.
